Results reported in PubChem BioAssay AID1117340 (Cheminformatics & Chemogenomics Research Group (CCRG), …, 2015).
The entries are a selection whose mix differs from that of the whole data set. Activity calls are given as the source filed them.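 Rule for the calls: active = compound that reduces growth-factor-driven endothelial tube area in a mixed cell culture, no cutoff stated; inactive = the rest.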

Assay: inhibition of endothelial tube formation, primary screen, imaging, VEGF stimulated, CD31 staining, tube area, NPC library (AID 1117340)
Settings: VEGF-stimulated ADSC/ECFC co-culture, at 10 µM, hits give high values

| Structure (SMILES) | tube area decrease |
| --- | --- |
| OCCSCCO | inactive: -16.6% |
